The values below come from US20240034723A1, “PIPERIDINYL SMALL MOLECULE DEGRADERS OF HELIOS AND METHODS OF USE” (DANA-FARBER CANCER INSTITUTE, INC., priority 2020, published 2024).

By UniProt entry, the sequences of proteins in these tests, tags left out.
UniProt Q96SW2, whole entry: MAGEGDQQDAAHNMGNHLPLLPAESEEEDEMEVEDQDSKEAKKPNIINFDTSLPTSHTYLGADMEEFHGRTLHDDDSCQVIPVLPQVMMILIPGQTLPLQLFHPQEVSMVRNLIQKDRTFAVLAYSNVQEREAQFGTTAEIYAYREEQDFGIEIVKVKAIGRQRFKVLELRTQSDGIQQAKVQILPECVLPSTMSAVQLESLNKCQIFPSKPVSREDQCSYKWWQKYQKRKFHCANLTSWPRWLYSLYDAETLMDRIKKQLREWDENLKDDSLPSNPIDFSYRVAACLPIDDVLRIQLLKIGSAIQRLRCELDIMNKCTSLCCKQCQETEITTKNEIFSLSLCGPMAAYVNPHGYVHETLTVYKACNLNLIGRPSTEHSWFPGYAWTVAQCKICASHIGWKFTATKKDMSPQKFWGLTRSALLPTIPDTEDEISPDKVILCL
UniProt Q9UKS7, whole entry: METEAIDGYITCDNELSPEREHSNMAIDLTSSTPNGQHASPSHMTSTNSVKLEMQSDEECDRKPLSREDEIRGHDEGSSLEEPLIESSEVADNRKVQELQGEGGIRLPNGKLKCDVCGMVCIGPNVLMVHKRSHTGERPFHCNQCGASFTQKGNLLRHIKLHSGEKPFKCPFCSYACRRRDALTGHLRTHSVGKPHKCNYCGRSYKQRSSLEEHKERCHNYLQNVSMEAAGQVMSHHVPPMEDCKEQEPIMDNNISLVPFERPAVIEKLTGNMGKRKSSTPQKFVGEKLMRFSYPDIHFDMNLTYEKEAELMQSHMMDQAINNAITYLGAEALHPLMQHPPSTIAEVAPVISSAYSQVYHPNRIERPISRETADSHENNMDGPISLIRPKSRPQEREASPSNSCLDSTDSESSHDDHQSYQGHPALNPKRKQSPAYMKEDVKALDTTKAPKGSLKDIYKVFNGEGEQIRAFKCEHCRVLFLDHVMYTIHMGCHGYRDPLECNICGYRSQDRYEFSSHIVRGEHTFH
UniProt Q16531, whole entry partner: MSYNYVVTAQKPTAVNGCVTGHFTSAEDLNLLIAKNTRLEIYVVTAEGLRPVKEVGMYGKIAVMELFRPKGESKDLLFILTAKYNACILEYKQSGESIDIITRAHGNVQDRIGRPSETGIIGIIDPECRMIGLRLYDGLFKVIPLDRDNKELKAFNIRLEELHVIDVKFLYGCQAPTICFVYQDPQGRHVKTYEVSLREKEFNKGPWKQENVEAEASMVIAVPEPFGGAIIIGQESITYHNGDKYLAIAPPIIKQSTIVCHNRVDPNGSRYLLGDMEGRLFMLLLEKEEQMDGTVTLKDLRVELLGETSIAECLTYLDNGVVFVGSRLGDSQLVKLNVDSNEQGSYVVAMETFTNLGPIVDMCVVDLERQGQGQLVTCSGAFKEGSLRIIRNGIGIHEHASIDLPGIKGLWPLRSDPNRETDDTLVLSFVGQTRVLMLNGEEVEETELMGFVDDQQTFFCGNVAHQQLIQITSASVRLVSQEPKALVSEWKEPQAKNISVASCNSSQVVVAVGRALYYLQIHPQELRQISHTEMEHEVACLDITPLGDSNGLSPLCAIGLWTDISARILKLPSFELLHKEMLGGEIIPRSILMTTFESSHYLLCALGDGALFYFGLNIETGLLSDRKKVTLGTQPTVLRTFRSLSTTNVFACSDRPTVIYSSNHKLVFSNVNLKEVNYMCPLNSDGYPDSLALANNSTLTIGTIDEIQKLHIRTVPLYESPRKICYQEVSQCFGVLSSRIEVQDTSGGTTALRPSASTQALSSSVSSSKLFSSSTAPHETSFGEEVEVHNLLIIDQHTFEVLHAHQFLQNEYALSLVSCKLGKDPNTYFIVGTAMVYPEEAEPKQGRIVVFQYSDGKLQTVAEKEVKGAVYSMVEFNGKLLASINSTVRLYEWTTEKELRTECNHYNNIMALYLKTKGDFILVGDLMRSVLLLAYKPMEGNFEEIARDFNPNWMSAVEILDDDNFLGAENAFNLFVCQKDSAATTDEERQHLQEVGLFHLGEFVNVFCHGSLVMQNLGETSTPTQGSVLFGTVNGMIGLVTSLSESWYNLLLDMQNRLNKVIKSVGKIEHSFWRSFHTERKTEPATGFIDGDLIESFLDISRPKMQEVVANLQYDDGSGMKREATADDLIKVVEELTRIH

For this test, the target named is IKZF2 (Helios) (Homo sapiens, UniProt Q96SW2+Q9UKS7). The experiment in a line: HiBiT protocol: HiBiT-Helios degradation in MOLT4 cells (Example 63). As to conditions: read-out: IKZF2 DC50, after 6 hours of treatment, 13-point 10 μM to 0.00026 μM. How it is done: The HiBiT protein tagging system was applied to MOLT4 cells via a CRISPR/Cas-mediated insertion of the HiBiT peptide tag (Promega™) to the N-terminus of the IKZF2 gene locus (Neon™ Transfection System). The resulting HiBiT-Helios stable cell line was treated with the following inventive compounds in triplicates following a 13-point concentration scheme ranging from 10 μM to 0.00026 μM. At the indicated timepoints, the Nano-Glo® HiBiT Lytic Detection system (Promega™) was utilized for detecting bioluminescence of the HiBiT tag in treated cells: the abundance of the tag is proportionate to the level of luminescence. Following normalization to DMSO, dose-response curves were plotted (GraphPad Prism) to determine the concentration points at which 50% of HiBiT-Helios degradation was achieved by each compound. The extent of degradation (range of luminescence) from the highest to lowest concentration points was calculated to determine Dmax.
A general note: The HiBiT peptide binds its large partner to form an active luciferase.

Each structure is given as a SMILES string.

Take `O=C1CCC(N2Cc3cc(C4CCN(Cc5cccc6c5OCCN(c5ccccc5)C6=O)CC4)ccc3C2=O)C(=O)N1` (stereo not shown): the DC50 (usually the concentration giving 50% degradation) lay in the range of 5 to 25 nM.
